The record followed here is patent US20160213692A1, “ADVANCED METHOD OF TREATMENT AND MANAGEMENT OF CHRONIC HEPATITIS C INFECTION” (priority 2015, published 2016).

In data set [1] the test system is male Wistar rats. The settings on record: rat, in vivo. The method, then:
(§1) A total of 80 male Wistar rats weighing 250-300 gm were used. All animals received humane care during the study protocol and during sacrifice.
(§2) The study duration was 5 weeks. Peg-INF-α-2a was prepared by diluting the content of a full syringe (180 μg/0.5 ml) in 9.5 ml sterile normal saline to prepare a final volume of 10 ml and the final concentration was 18 μg/ml. Each rat in the ‘P’, ‘PD’, ‘PR’ and ‘PRD’ groups received a weekly subcutaneous injection of 0.33 ml (6 μg/rat) for a total of 4 injections. The drug was prepared fresh on the day of use. […] Cholecalciferol ([…]) was prepared by adding 4 ml to 16 ml saline every morning to form a final concentration of 1000 IU/mL. Each rat in the ‘PD’, ‘PRD’, ‘PR’ and ‘VitD’ groups received 0.5 ml/day (500 IU/day) for the full study duration. Cholecalciferol, and its dose, was chosen over calcitriol, the hormonal form of vitamin D, to avoid the risk of soft tissue calcification (Salum et al, 2012). Following 4 injections, the rats were sacrificed in the fifth week at the time of the 5th injection would have been given. RBV and vitamin D3 were continued till the day before sacrifice.
(§3) All Rats were sacrificed on the same day under anesthesia using diethyl ether (Fisher Scientific UK Ltd, Loughborough, UK) a week after the last injection. 1 ml of blood was collected on EDTA for CBC and 3 ml of blood were collected in plane tube immediately after cutting the vena cava. Blood samples in plane tubes were centrifuged and the serum was stored in −20° C. for routine biochemistry and to measure serum concentrations of 25-OH vitamin D and EPO.
The quantitative measurement of serum liver enzymes (ALP, ALT and AST), total and indirect bilirubin, creatinine and urea was done using Cobas e411 (Roche Diagnostics International Ltd, Switzerland) according to the manufacturer protocol.

Data set [2] concerns male Wistar rats. Kind of data set: Haematological profile / erythrocyte indices (Sysmex XS 500) of treated rats. The method, then: as §1, §2, §3
Whole blood samples (1 ml) collected on EDTA were processed on Sysmex XS 500 (Sysmex, IL, USA) for the measurement of hemoglobin concentrations, RBCs count, packed cell volume (PCV), mean corpuscular volume (MCV), mean corpuscular hemoglobin (MCH) an mean corpuscular hemoglobin concentration (MCHC).

For data set [3] the following is noted: rat, in vivo. The method, then:
as §1, §2
All Rats were sacrificed on the same day under anesthesia using diethyl ether (Fisher Scientific UK Ltd, Loughborough, UK) a week after the last injection. […]

In data set [1], Pegylated interferon-α-2a [P Group] gave an ALP of 125.7 ± 9.7 IU/L, an ALT of 71.2 ± 6.7 U/L, an AST of 81.8 ± 7.3 U/L and a Creatinine of 0.2 ± 0.08 mg/dL. Further, in data set [1], the “Total Bilirubin” value came out at 0.48 ± 0.16 mg/dL and the Urea was 52.3 ± 4^ mg/dL. For the same substance, the “effect on erythrocyte parameters compared to Control group” value in data set [2] (male Wistar rats, 5 weeks, p>0.05) is on record as “did not affect”. Besides, in data set [2] (rat, in vivo), the Hb was 14.7 ± 0.4 g/dL, the MCH worked out at 17.8 ± 0.9 pg, the MCHC came to 33.8 ± 0.5 pg/dL and the MCV was 62.7 ± 3.3 fL. Besides, in data set [2] (rat, in vivo), the PCV came to 42.3 ± 3.1% and the RBCs is given as 8.5 ± 0.8 ×10^6/μl. In addition, the “25-OH Vitamin D” value in data set [3] came out at 39.6 ± 6.7 ng/mL.
